Data from US20060293384A1, “Isethionyl nitrates and compounds thereof” (published 2006).

Conditions: one drop on an anvil, struck with a hammer

isethionic nitrate
detonation on hammer strike: unable to obtain a detonation after many attempts
